Data on 2 molecules can be found in ChEMBL document CHEMBL5728676, “Inhibitors of RAF kinases” (2021).

The experiment concerns the target RAF proto-oncogene serine/threonine-protein kinase (Homo sapiens, UniProt P04049). As to the kind of experiment: Enzymatic RAF1 Kinase: Small molecule inhibition of RAF1 kinases was measured using ADP-Glo assay. In the assay, ADP is converted to ATP in the presence of test kinase and substrate, resulting in luciferase reaction and luminescent readout with light generated proportional to the relative kinase activity. Compounds diluted in DMSO were used in 10-point, 3-fold dose curve for both assays. Final concentrations of 3 nM RAF1 (CarnaBio, Cat. 09-125) and 30 nM MEK1 substrate (Millipore, Cat. 14-420) were incubated with 3 μM ATP, 10 mM MgCl2, 0.003% Brij-35, 2 mM DTT, 0.05% BSA, 1 mM EGTA, and 50 mM HEPES for 90 minutes at room temp prior to addition of ADP-Glo reagent (Promega, Cat. V9102) for 40 minutes, and detection reagent for 45 minutes. Luminescence was read on an Envision plate reader (PerkinElmer) and percent remaining activity was used to calculate IC50 using a four-parameter fit model using Dotmatics Knowledge Solutions Studies curve fitting (Dotmatics, Bishops Stortford, UK, CM23).

A word on the IC50: it is the concentration at which inhibition is half-maximal. Turning to `Cc1ccc(NC(=O)N2CC[C@@H](CC(F)(F)F)C2)cc1-c1cc(N2CCOCC2)nc(N2C[C@@H](N)CC2=O)c1`, the IC50 is < 10 nM. On to `Cc1ccc(NC(=O)N2CC[C@@H](CC(F)(F)F)C2)cc1-c1cc(N2CCOCC2)nc(N2C[C@H](N)CC2=O)c1`, for which the IC50 is < 10 nM.
